The numbers were not newly measured in patent publication US20070224637A1, “Oxidative protection of lipid layer biosensors” (priority 2006, published 2007), which cites them from elsewhere.

As for `O=S([O-])O.[Na+]` [Sodium bisulfite], the “Solubility In alcohol” value is on record as “Slightly”.
Take Acetone sodium bisulfite: the “Solubility In alcohol” value is on record as “No” and the “Solubility In oil” value is listed as “No”. Besides, the “Solubility In water” value (in water) is given as “Yes”.
As for `O=S([O-])[O-].[Na+].[Na+]` [Sodium sulfite], the “Solubility In oil” value is on record as “No”.
As for Sodium thiosulfate, the “Solubility In alcohol” value was “No”.
